Target: dopamine transporter site (Cavia porcellus, UniProt H0WCX4)
Experiment: Dopamine reuptake inhibition assay ([3H]WIN 35428 binding, striatal membranes)
Set-up: species or system Guinea pig
Details: @ 100 nM (top number); read-out: DA Uptake, mean % inhibition

Sequences of proteins named here, by UniProt entry; tags and fusion partners are left off. Residues count along the entry.
UniProt H0WCX4, 1-619: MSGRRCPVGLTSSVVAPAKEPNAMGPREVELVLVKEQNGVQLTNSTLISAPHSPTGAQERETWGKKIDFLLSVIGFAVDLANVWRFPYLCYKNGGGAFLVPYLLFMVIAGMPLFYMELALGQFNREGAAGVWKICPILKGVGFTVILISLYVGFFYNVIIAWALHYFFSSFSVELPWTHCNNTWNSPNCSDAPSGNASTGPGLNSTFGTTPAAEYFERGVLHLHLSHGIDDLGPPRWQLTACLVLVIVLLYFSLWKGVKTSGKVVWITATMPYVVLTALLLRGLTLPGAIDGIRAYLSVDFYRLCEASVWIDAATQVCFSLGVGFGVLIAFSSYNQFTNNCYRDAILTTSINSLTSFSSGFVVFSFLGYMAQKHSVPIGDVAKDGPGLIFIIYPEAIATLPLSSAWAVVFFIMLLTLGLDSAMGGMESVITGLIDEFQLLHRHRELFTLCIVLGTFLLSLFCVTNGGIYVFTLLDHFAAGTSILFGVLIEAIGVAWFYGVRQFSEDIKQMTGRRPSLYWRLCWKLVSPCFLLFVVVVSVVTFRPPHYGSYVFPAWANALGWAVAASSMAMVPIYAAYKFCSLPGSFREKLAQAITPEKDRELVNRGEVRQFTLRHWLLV

With `CNCCC(Oc1ccc(C(F)(F)F)cc1)c1ccccc1` (stereo not shown) [Fluoxetine] the inhibition at 0.1 µM was 0%.

— patent EP1790337A2, “Methods and compounds for treating depression and other disorders” (priority 1998, dated 2000)
